{
  "source": "patent US4689321A",
  "about": "“Oxo propenyl nucleosides and nucleoside related analogs” (The Research Foundation of State University of New York, priority 1984, dated 1987)",
  "system": "murine leukemia",
  "experiment": "murine leukemia model, ascites cells implanted i.p. in mice (Table I)",
  "type": "in vivo, murine (CFD1+ mice)",
  "conditions": "for Effect MST % T/C: >125 considered significant",
  "key": {"[1]": {"conditions": "32 mg/kg/inj IP, schedule qd 1 5"}, "[2]": {"conditions": "64 mg/kg/inj IP, schedule qd 1 5"}},
  "data": [
    {"smiles": "Cc1cn([C@H]2C[C@H](O)[C@@H](CO)O2)c(=O)n(C=CC=O)c1=O", "note": "[XX-336, 3-(thymidin-3-yl)-prop-2-enal]", "values": [
      {"measurement": "Survivors d.5", "setting": "2 mg/kg/inj IP, schedule qd 1 5", "value": "4/4"},
      {"measurement": "AWC d.5", "setting": "2 mg/kg/inj IP, schedule qd 1 5, control +2.7", "value": -0.3, "unit": "gm"},
      {"measurement": "Survivors d.5", "setting": "4 mg/kg/inj IP, schedule qd 1 5", "value": "4/4"},
      {"measurement": "AWC d.5", "setting": "4 mg/kg/inj IP, schedule qd 1 5, control +2.7", "value": "+0.6 gm"},
      {"measurement": "AWC d.5", "setting": "8 mg/kg/inj IP, schedule d.1, control +2.7", "value": "+2.1 gm"},
      {"measurement": "AWC d.5", "setting": "8 mg/kg/inj IP, schedule qd 1 5, control +2.7", "value": "+0.4 gm"},
      {"measurement": "AWC d.5", "setting": "16 mg/kg/inj IP, schedule d.1, control +2.7", "value": "+0.5 gm"},
      {"measurement": "AWC d.5", "setting": "16 mg/kg/inj IP, schedule qd 1 5, control +2.7", "value": "+0.8 gm"},
      {"measurement": "AWC d.5", "setting": "32 mg/kg/inj IP, schedule d.1, control +2.7", "value": "+0.5 gm"},
      {"measurement": "AWC d.5", "setting": "[1]", "value": "TOX"},
      {"measurement": "MST (median survival time)", "setting": "[1]", "value": "TOX"},
      {"measurement": "Effect MST % T/C", "setting": "[1]", "value": "TOX"},
      {"measurement": "AWC d.5", "setting": "64 mg/kg/inj IP, schedule d.1", "value": "TOX"},
      {"measurement": "MST (median survival time)", "setting": "64 mg/kg/inj IP, schedule d.1", "value": "TOX"},
      {"measurement": "Effect MST % T/C", "setting": "64 mg/kg/inj IP, schedule d.1", "value": "TOX"},
      {"measurement": "AWC d.5", "setting": "[2]", "value": "TOX"},
      {"measurement": "MST (median survival time)", "setting": "[2]", "value": "TOX"},
      {"measurement": "Effect MST % T/C", "setting": "[2]", "value": "TOX"},
      {"measurement": "AWC d.5", "setting": "128 mg/kg/inj IP, schedule d.1", "value": "TOX"},
      {"measurement": "MST (median survival time)", "setting": "128 mg/kg/inj IP, schedule d.1", "value": "TOX"},
      {"measurement": "Effect MST % T/C", "setting": "128 mg/kg/inj IP, schedule d.1", "value": "TOX"},
      {"measurement": "AWC d.5", "setting": "256 mg/kg/inj IP, schedule d.1", "value": "TOX"},
      {"measurement": "MST (median survival time)", "setting": "256 mg/kg/inj IP, schedule d.1", "value": "TOX"},
      {"measurement": "Effect MST % T/C", "setting": "256 mg/kg/inj IP, schedule d.1", "value": "TOX"}
    ]}
  ]
}
